Earlier results in US7211602B2, “Treatment of neurodegenerative disorders through the modulation of the polyamine pathway” (ALS Therapy Development Foundation, Inc., priority 2001, dated 2007).

Tested on: patients with ALS
Details: Bensimon et al. 1994; Lacomblez et al. 1996; cited from earlier work

Nc1nc2ccc(OC(F)(F)F)cc2s1 [riluzole]
effect on survival of patients with ALS: statistically significant effects on survival
